Data as given in US20050089473A1, “Potassium channel mediated delivery of agents through the blood-brain barrier” (Cedars-Sinai Medical Center, priority 2003, published 2005).

Key:
[1] = tested on: Her2-positive metastatic breast cancer; details: human, in vivo; cited from earlier work
[2] = tested on: intracranial human glial tumors; assay: Survival study, nude mice with intracranial human glial tumors; assay type: in vivo, mouse; details: i.v., three consecutive doses for three days
Description: GBM-xenograft rat and mouse models were developed by intracranially implanting primary GBM cells isolated from patient brain tumor tissue. The IC50 of Herceptin on GBM cells in vitro by FACS analysis was established. To investigate whether MS administration by intracarotid (i.c.) and intravenous (i.v.) routes, increases BTB permeability to different tracers, and enhances delivery to brain tumor, permeability studies were performed. The effect of i.c. and i.v. MS administration on BTB permeability in a GBM-xenograft rat model is presented below.
Nude mice were intracranially implanted with cells. The tumor was allowed to grow for 7 days before treatment was initiated. Mice were divided into groups: (1) control, (2) MS (0.9 mM), (3) Temodor (27 mM), (4) Herceptin (4 mg/kg), (5) MS+Temodor, (6) minoxidil sulfate+Herceptin, (7) herceptin+temodor, and (8) MS+Herceptin+temodor. Untreated mice were either dead or euthanized due to tumor-related complications within 30 days. Immediately after 75-days post tumor implantation, all surviving treated mice were euthanized.

| Substance | Breast cancer patients developing bone metastasis [1] [%] | Breast cancer patients developing brain metastasis [1] [%] | Mean survival [2] [days] |
| --- | --- | --- | --- |
| trasbuzamab: given to Her2-positive breast cancer patients; probably trastuzumab | 4 | 28 |  |
| trastuzumab [Herceptin] |  |  | 24.91 ± 8.3 |
